What was measured:
Melanocortin receptor 4 [1] = target: T1, Melanocortin receptor 4 (Homo sapiens, UniProt P32245); experiment: Displacement of [125I]NDP-MSH from Melanocortin 4 receptor at 10 uM
Melanocortin receptor 4 [2] = target: T1, Melanocortin receptor 4

The chains behind the UniProt entries cited, without tags or fusion partners.
UniProt P32245, whole entry: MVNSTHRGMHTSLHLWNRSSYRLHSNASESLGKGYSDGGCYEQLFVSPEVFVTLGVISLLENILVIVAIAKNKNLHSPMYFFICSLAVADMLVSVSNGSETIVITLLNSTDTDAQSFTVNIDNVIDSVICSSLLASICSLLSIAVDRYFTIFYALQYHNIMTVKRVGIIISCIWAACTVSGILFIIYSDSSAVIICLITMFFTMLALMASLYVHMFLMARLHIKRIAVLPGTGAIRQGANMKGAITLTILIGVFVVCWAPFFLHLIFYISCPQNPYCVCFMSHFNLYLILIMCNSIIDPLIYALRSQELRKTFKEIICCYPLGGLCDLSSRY

SMILES | IC50 (Melanocortin receptor 4 [1]) [nM] | EC50 (Melanocortin receptor 4 [2]) [nM]
CC(=O)N[C@@H](Cc1c[nH]cn1)C(=O)N[C@H](Cc1ccccc1)C(=O)N[C@H](CCCN=C(N)N)C(=O)N[C@@H](Cc1c[nH]c2ccccc12)C(N)=O | > 10000 | –
CC(=O)N[C@@H](Cc1cnc[nH]1)C(=O)N[C@H](Cc1ccccc1)C(=O)N[C@@H](CCCN=C(N)N)C(=O)N[C@@H](Cc1c[nH]c2ccccc12)C(N)=O | 1150 | 793
CC(=O)N[C@@H](Cc1c[nH]cn1)C(=O)N[C@@H](Cc1ccccc1)C(=O)N[C@@H](CCCN=C(N)N)C(=O)N[C@H](Cc1c[nH]c2ccccc12)C(N)=O | > 10000 | –
CC(=O)N[C@@H](Cc1c[nH]cn1)C(=O)N[C@H](Cc1ccccc1)C(=O)N[C@H](CCCN=C(N)N)C(=O)N[C@H](Cc1c[nH]c2ccccc12)C(N)=O | > 10000 | –

Source: ChEMBL document CHEMBL1130083, “Discovery of prototype peptidomimetic agonists at the human melanocortin receptors MC1R and MC4R” (J Med Chem, 1997)
